Test results from patent publication US7084127B2, “C2,5′-disubstituted and N6, C2,5′-trisubstituted adenosine derivatives and their different uses” (Universiteit Leiden, priority 2001, dated 2006).

Amino acid sequences for entries named in this document (tags omitted). A change or cut given only in a name is not applied to a line headed by its entry.
UniProt P30543, whole entry: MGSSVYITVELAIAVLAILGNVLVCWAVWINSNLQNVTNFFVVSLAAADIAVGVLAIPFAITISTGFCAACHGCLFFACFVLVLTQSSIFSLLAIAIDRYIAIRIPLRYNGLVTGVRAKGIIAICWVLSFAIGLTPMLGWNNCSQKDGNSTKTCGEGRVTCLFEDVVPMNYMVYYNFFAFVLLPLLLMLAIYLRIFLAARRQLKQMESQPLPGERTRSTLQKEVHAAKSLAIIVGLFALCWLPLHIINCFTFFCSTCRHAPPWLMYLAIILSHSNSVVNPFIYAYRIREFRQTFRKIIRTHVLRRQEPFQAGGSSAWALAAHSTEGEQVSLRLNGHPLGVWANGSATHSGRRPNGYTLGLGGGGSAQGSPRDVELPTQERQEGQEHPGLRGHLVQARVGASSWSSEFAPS

Molecular target: T1, A2A receptor in rat striatum (Rattus norvegicus, UniProt P30543)
T1 construct: the A2A receptor in rat striatum; from tissue; host or cells: rat striatum
Assay: Radioligand binding, displacement of [3H]ZM241385 from rat striatal membranes;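 also: displacement assays run in the absence of GTP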
Conditions: [3H]ZM241385, rat striatal membranes, ligand 10^−5 M

CNC(=O)[C@H]1O[C@@H](n2cnc3c(NCc4cccc(I)c4)ncnc32)[C@H](O)[C@@H]1O [IB MECA, reference compound]
% displacement at 10^−5 M A2A: 39.4%
